Assay [1] relates to PC-3 cells. In words: Antiproliferation assay (MTS), PC-3. It is filed as cell-based. Particulars: Homo sapiens, PC3, 72 hours of drug treatment.
Assay [2] has as its target PI3K (p110α/p85α) (Homo sapiens (Human), UniProt P42336). In words: PI3K HTRF enzyme assay, p110α/p85α. The class given is biochemical. To be noted: read-out: % inhibition @ 500 nM p110α; compound at 500 nM, 10 μM ATP. On the procedure:
Recombinant PI3K (p110α/p85α) and PI3K (p110β/p85α) were from Millipore. […] Briefly, the compounds of interest dissolved in 100% DMSO were dispensed in all wells, following which the mixture of PIP2 and enzyme was added. PI3K (p110α/p85α) and PI3K (p110β/p85α) enzyme reactions were initiated in the presence of 10 μM and 100 μM ATP, respectively, and incubated for 30 min at room temperature. STOP solution prepared 2 hours prior to use was added to stop reactions, and mixed well. Detection solution prepared 2 hours prior to use was added, and incubated at room temperature for 17 hours in the dark. […] HTRF ration was calculated as follows: […]
(In general: Time-resolved FRET reads energy transfer from a long-lived donor to a nearby acceptor.)

Protein sequences, listed by entry. Tags and fused reporters are not part of them.
UniProt P42336, whole entry, species assumed: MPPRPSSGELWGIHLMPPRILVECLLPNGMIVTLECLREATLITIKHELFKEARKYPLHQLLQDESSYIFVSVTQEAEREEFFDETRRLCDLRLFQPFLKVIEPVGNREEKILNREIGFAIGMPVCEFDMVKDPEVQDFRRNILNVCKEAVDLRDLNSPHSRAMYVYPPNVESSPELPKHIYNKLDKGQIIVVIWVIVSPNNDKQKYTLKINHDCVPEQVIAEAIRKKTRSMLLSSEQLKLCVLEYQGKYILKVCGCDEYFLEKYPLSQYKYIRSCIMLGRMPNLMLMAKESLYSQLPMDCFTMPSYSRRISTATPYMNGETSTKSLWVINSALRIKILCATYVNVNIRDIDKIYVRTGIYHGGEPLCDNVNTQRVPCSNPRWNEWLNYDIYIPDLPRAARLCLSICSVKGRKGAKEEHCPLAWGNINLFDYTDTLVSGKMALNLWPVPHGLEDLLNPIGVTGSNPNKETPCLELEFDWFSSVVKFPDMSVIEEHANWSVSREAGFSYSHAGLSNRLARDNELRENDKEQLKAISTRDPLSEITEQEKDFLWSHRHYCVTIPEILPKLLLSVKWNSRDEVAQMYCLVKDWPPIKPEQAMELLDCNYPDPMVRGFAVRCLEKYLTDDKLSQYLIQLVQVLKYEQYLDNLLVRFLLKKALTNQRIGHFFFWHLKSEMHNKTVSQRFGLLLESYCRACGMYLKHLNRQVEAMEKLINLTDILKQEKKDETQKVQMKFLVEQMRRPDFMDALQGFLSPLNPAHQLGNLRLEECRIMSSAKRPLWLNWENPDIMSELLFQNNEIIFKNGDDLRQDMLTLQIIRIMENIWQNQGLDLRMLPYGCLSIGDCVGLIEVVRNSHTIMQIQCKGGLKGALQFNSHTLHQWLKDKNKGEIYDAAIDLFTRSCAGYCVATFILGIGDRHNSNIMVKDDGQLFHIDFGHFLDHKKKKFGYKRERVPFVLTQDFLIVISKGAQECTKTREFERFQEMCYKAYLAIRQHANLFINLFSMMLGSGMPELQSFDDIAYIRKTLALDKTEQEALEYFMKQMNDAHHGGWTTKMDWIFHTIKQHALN

Assay [3] has as its system A549 cells. As to the kind of experiment: Antiproliferation assay (MTS), A549. To be noted: Homo sapiens; A549, 72 hours of drug treatment. The class given is cell-based.

This passage reports IC50 and inhibition results from patent US9315491B2 (DEVELOPMENT CENTER FOR BIOTECHNOLOGY, priority 2009, dated 2016).

On to `CSc1cnc(-c2ccc(NC(=O)Nc3ccc(N4CCN(C)CC4)cc3)cc2)nc1N1CCOCC1` [MTR-0246, 1-[4-(4-Methyl-piperazin-1-yl)-phenyl]-3-[4-(5-methylsulfanyl-4-morpholin-4-yl-pyrimidin-2-yl)-phenyl]-urea], for which the IC50 amounted to 433 ± 10 nM in assay [1] and 1450 ± 29 nM in assay [3]. In assay [2], the inhibition at 0.5 µM turned out to be 43.3%.

Consider `CSc1c(-c2cccnc2)nc(-c2ccc(NC(=O)Nc3ccc(NS(C)(=O)=O)cc3)cc2)nc1N1CCOCC1` [MTR-0463, N-(4-{3-[4-(5-Methylsulfanyl-4-morpholin-4-yl-6-pyridin-3-yl-pyrimidin-2-yl)-phenyl]-ureido}-phenyl)-methane sulfonamide], for which the figures for the IC50 in assay [1] and in assay [3] were 32 ± 1 nM and 222 ± 15 nM, respectively.

As for `CSc1c(-c2cccnc2)nc(-c2ccc(NC(=O)Nc3cccnc3)cc2)nc1N1CCOCC1` [MTR-0464, 1-[4-(5-Methylsulfanyl-4-morpholin-4-yl-6-pyridin-3-yl-pyrimidin-2-yl)-phenyl]-3-pyridin-3-yl-urea], the figures for the IC50 in assay [1] and in assay [3] were 2.4 nM and 12 ± 0.8 nM, respectively.

Turning to `CSc1c(-c2ccncc2)nc(-c2ccc(NC(=O)Nc3ccccc3)cc2)nc1N1CCOCC1` [MTR-0465, 1-[4-(5-Methylsulfanyl-4-morpholin-4-yl-6-pyridin-4-yl-pyrimidin-2-yl)-phenyl]-3-phenyl-urea], the figures for the IC50 in assay [1] and in assay [3] were 137 ± 2 nM and 197 ± 3 nM, respectively.

For `CSc1c(Cl)nc(-c2ccc(NC(=O)Nc3ccncc3)cc2)nc1N1CCOCC1` [MTR-0469, 1-[4-(4-Chloro-5-methylsulfanyl-6-morpholin-4-yl-pyrimidin-2-yl)-phenyl]-3-pyridin-4-yl-urea], the results for the 50% inhibitory concentration (IC50) in assay [1] and in assay [3] were 5.7 nM and 39 ± 2 nM, respectively.

In the case of `COc1c(Cl)nc(-c2ccc(NC(=O)Nc3ccncc3)cc2)nc1N1CCOCC1` [MTR-0476, 1-[4-(4-Chloro-5-methoxy-6-morpholin-4-yl-pyrimidin-2-yl)-phenyl]-3-pyridin-4-yl-urea], the IC50 in assay [1] worked out at 15 nM; in assay [3], 137 ± 6 nM.

Take `CCNC(=O)Nc1ccc(-c2nc(-c3ccncc3)c(SC)c(N3CCOCC3)n2)cc1` [MTR-0477, 1-Ethyl-3-[4-(5-methylsulfanyl-4-morpholin-4-yl-6-pyridin-4-yl-pyrimidin-2-yl)-phenyl]-urea]: the figures for the IC50 in assay [1] and in assay [3] were 102 ± 1 nM and 122 ± 1 nM, respectively.

`CNC(=O)Nc1ccc(-c2nc(-c3ccncc3)c(SC)c(N3CCOCC3)n2)cc1` [MTR-0478, 1-Methyl-3-[4-(5-methylsulfanyl-4-morpholin-4-yl-6-pyridin-4-yl-pyrimidin-2-yl)-phenyl]-urea]: the IC50 in assay [1] is 102 ± 1 nM; in assay [3], 107 ± 4 nM.

Regarding `O=C(Nc1ccncc1)Nc1ccc(-c2ncc(OCCN3CCOCC3)c(N3CCOCC3)n2)cc1` [MTR-0481, 1-{4-[4-Morpholin-4-yl-5-(2-morpholin-4-yl-ethoxy)-pyrimidin-2-yl]-phenyl}-3-pyridin-4-yl-urea], the IC50 in assay [1] was 424 ± 26 nM; in assay [3] it was 608 ± 14 nM.

One may read the IC50 as the concentration needed to halve the response being measured. A lower IC50 goes with higher potency. The inhibition is the share of the control response that was lost under treatment.
